Assay results published in patent US12472180B2, “Combinations for treatment of NAFLD/NASH and related diseases” (Pfizer Inc., priority 2020, dated 2025).

System: adults with non-alcoholic fatty liver disease (NAFLD)
Settings: for total number (%) of subjects exceeding triglyceride threshold >400 mg/dl / total number (%) of subjects exceeding triglyceride threshold >600 mg/dl / total number (%) of subjects exceeding triglyceride threshold >800 mg/dl: ACCi 15 mg BID, DGAT2i 300 mg BID, NAFLD patients; for Serum triglycerides % Change from Placebo, LS Mean: Study Day 42, Cmpd A 15 mg, Cmpd D 300 mg Q12H

| SMILES | total number (%) of subjects exceeding triglyceride threshold >400 mg/dl | total number (%) of subjects exceeding triglyceride threshold >600 mg/dl | total number (%) of subjects exceeding triglyceride threshold >800 mg/dl | Serum triglycerides % Change from Placebo, LS Mean |
| --- | --- | --- | --- | --- |
| COc1cc(C(=O)N2CCC3(CC2)CC(=O)c2c(cnn2C(C)C)C3)cc(-c2ccc(C(=O)O)cc2)n1 [Compound A, 4-(4-(1-isopropyl-7-oxo-1,4,6,7-tetrahydrospiro[indazole-5,4′-piperidine]-1′-carbonyl)-6-methoxypyridin-2-yl)benzoic acid] | 11 (37.9) | 4 (13.8) | 3 (10.3) | marked triglyceride elevation |
| CCOc1cccnc1Oc1cncc(-c2ncc(C(=O)N[C@H]3CCOC3)cn2)c1 [Compound D, (S)-2-(5-((3-ethoxypyridin-2-yl)oxy)pyridin-3-yl)-N-(tetrahydrofuran-3-yl)pyrimidine-5-carboxamide] | 2 (7.4) | 1 (3.7) | 0 | modest decrease in triglycerides |
